# Biological target: pp60^c-src (Homo sapiens, UniProt P12931)
# Experiment: Cellular Mimetic Src assay (RR-SRC phosphorylation)
smiles,measurement,value
"N#C/C(=C\c1ccc(O)c(O)c1)C(N)=S [Tyrophostin A47, Tyrphostin A47, reference compound]",% Inhibition at 100 μM (std. dev.),43 (+/−3) %
